Nrf2 ARE act – activates Nrf2 signaling; AREc32 ARE-luciferase reporter (MCF7-derived line), luminescence, 24 h; AID 624171; 410,000 tested, 0.31% active; Potency, µM (titrated, usually from 46.1 µM), for inactives: at the top dose activation, most hits filed as activators; further: potency means the concentration at half of the fitted maximal effect; % of control where 0% means no effect; nearly all actives have a fitted effect of over 65% in size
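Nrf2 activation is followed as ARE-luciferase induction in the AREc32 line after one day of compound treatment; luminescence is read with Steady-Glo.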
TCR act – T cell receptor activation; primary human leukocytes, anti-CD3, IL-2 HTRF, 48 h; Potency, µM (titrated, usually from 9.22 µM), inactives show at the top dose activation of IL-2 secretion, hits mostly activators; 330,000 tested, under 10 active; AID 504894; further: % of control where 0% means no effect
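HTRF read-out of IL-2 secretion: europium cryptate donor excited at 320nm, d2 acceptor emission at 665nm. Cells were primary human leukocytes incubated 48 hr with compounds and a-CD3 beads, supplying TCR signal only.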
Nrf2 inh – inhibitors of Nrf2 signaling; A549 ARE-Fluc reporter, luciferase luminescence, 18-24 h; Potency, µM (top dose mostly 46 µM), without a hit: top-dose activity change, negative = inhibition, usual class: inhibitors; 360,000 tested, 2.1% active; AID 504444; further: potency means the concentration at half of the fitted maximal effect; on the % scale 0 is the no-effect control and ±100 the full control effect; nearly all actives have a fitted effect of over 60% in size
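In this cell-based qHTS, ARE-driven firefly luciferase in A549 cells reports Nrf2 activity; the luminescent signal after BugLite lysis is the measured value, with a prior CellTiter-Fluor read for cell health.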
A549 viability – counter-screen for Nrf2 inhibitors: cytotoxicity in A549 cells; A549 ARE-Fluc cells, CellTiter-Fluor viability, 18-24 h; Potency, µM (series often up to 46 µM), for inactives: at the top dose activity change, negative = cytotoxicity, most hits filed as inhibitors; 390,000 tested, 0.16% active; AID 504648; further: potency means the concentration at half of the fitted maximal effect; on the % scale 0 is the no-effect control and ±100 the full control effect
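A549 ARE_Fluc cells in 5% FBS OPTI-MEM were exposed to compounds in concentration-response for 18-24 h at 37 deg C. Viability was read by CellTiter-Fluor fluorescence (Ex 405/Em 525) after 30 min, before the luciferase read.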
miR-21 reporter – miR-21 reporter, rising signal | AID 2288 | HeLa miR-21 FLuc reporter, luciferase, 48 h | 340,000 tested, under 10 active | Potency, µM (doses to about 38.3 µM), for inactives: at the top dose reporter change, positive = more light; active = well fitted rising curve with a large enough effect; inconclusive = small, poorly fitted or top-dose-only effect; inactive = no such curve, though single readings can be large or run the other way;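 note: % of control where 0% means no effect; miR-21 action dims this reporter so a rising signal means less miR-21 action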
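Compounds were titrated across several concentrations (up to approximately 40 uM) and incubated 48 hours with HeLa miR-21-FLuc reporter cells (miR-21 target sequence downstream of FLuc, endogenous miR-21). Readout was firefly luciferase luminescence after lytic detection reagent.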
ClpP mod – qHTS Assay for Activators of ClpP | ATP-dependent Clp protease proteolytic subunit (Bacillus subtilis (strain 168)), P80244 | 340,000 tested, 1.9% active | AID 651965, 2013 | purified B. subtilis ClpP, FRET peptide cleavage, 20 min | Potency, µM (doses to about 57.5 µM), inactives show top-dose activity change, negative = active; active means well fitted falling curve with a large enough effect; inconclusive means small, poorly fitted or top-dose-only effect; inactive means no such curve, though single readings can be large or run the other way; further: potency means the concentration at half of the fitted maximal effect; the source files actives as falling curves though it sought activators and does not explain the sign; nearly all actives have a fitted effect of over 65% in size
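Purified B. subtilis ClpP, 10 microg/mL final in Tris/HCl pH8 with KCl, BSA, glycerol and Tween-20, cleaved an Abz/nitrotyrosine-quenched decapeptide. Fluorescence (ex 320, em 430) was read at 0 and 20 min at room temperature. Delta was normalized to 5.8 microM ADEP and DMSO/no-enzyme controls.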
* hit, by the source's call; u = inconclusive; x = no result given; [ ] = remark or other dose. In the library only some 3.7% were active in any assay of this set; here they are far more common. Unless noted, the call rests on the fitted dose curve; in most records, active means well fitted curve in the direction sought with a large enough effect; inconclusive means small, poorly fitted or top-dose-only effect, or another doubt; inactive means no such curve, though single readings can be large; an effect the other way counts as inactive or inconclusive.

The line under a structure holds: Nrf2 ARE act, TCR act, Nrf2 inh, A549 viability, miR-21 reporter, ClpP mod
(1) O=c1oc2ccc3ccccc3c2cc1-c1nc2c(s1)CCc1ccccc1-2
  x, x, 2%, 10%, x, -24%
(2) O=c1oc2cc(O)ccc2cc1-c1nc2c(s1)CCc1ccccc1-2
  6%, 8%[46.1 µM], -7%, u, -1%, 20µM*
(3) Cc1cccc(NC(=O)CSc2nnc3[nH]c(=O)cc(-c4ccccc4)n23)c1C
  0%, x, x, 0%, 5%, 4%
(4) C=CCNC(=O)C1CCN(S(=O)(=O)c2ccc3ccccc3c2)CC1
  -1%, 2%, -20%, 1%, -1%, 2%
(5) FC(F)(F)c1nc2nncn2c2c1CCCCC2
  -1%, 3%, 14%, -3%, -13%, 32µM*
(6) CCOc1ccc2[nH]c(=O)c(CN(CCc3ccccc3)C(=O)N3CCCC3)cc2c1
  -1%, -9%, x, 16%, -6%, u
(7) CCOc1ccc2[nH]c(=O)c(CN(Cc3ccc(C)cc3)C(=O)N3CCCC3)cc2c1
  0%, x, 12%, -6%, -3%, 32µM*
(8) CCOc1ccc2[nH]c(=O)c(CN(CCOC)C(=O)N3CCOCC3)cc2c1
  0%, -1%, 22%, -6%, -9%, 28µM*
(9) Cc1ccc(N(CC(=O)NC(C)C)C(=O)CCC(=O)Nc2nccs2)cc1C
  0%, 2%, -6%, 6%, 3%, x
(10) CN(Cc1nccs1)c1ncnc2ccc(-c3ccc4c(c3)OCO4)cc12
  x, x, -16%, 1%, x, x
(11) O=C1c2cccc3cccc(c23)C(=O)N1CC1CCN(CC(O)COCc2ccc3c(c2)OCO3)CC1 (stereo unspecified)
  0%, -4%[46.1 µM], 13%, u, 10%, 28µM*
(12) COc1ccc(OC)c(C(=O)COC(=O)c2ccc(C)o2)c1
  13µM*, 4%, -5%, -3%, -12%, -2%
(13) COc1ccc(C(=O)OCC(=O)c2cc(OC)ccc2OC)c(OC)c1
  3%, 1%, x, 0%, -31%, -4%
(14) COc1ccc(OC)c(C(Cc2ccnc3ccccc23)Cc2ccnc3ccccc23)c1
  x, x, x, x, x, -2%
(15) O=c1nc2c(O)cccn2c2c1c(=O)[nH]c1ccccc12
  5.6µM*, 5%[46.1 µM], 13%, -8%, -8%, -5%

Full records, quoted from the list:
O=c1oc2ccc3ccccc3c2cc1-c1nc2c(s1)CCc1ccccc1-2 in the list: Nrf2 ARE act: x; TCR act: x; Nrf2 inh: 2%; A549 viability: 10%; miR-21 reporter: x; ClpP mod: -24%
COc1ccc(OC)c(C(=O)COC(=O)c2ccc(C)o2)c1 in the list: Nrf2 ARE act: 13µM*; TCR act: 4%; Nrf2 inh: -5%; A549 viability: -3%; miR-21 reporter: -12%; ClpP mod: -2%

Sorted by formula weight (descending): 3 of the compounds above.
The line under a structure holds: Nrf2 ARE act, TCR act, Nrf2 inh, A549 viability, miR-21 reporter, ClpP mod
(11) O=C1c2cccc3cccc(c23)C(=O)N1CC1CCN(CC(O)COCc2ccc3c(c2)OCO3)CC1 (stereo unspecified)
  0%, -4%[46.1 µM], 13%, u, 10%, 28µM*
(6) CCOc1ccc2[nH]c(=O)c(CN(CCc3ccccc3)C(=O)N3CCCC3)cc2c1
  -1%, -9%, x, 16%, -6%, u
(3) Cc1cccc(NC(=O)CSc2nnc3[nH]c(=O)cc(-c4ccccc4)n23)c1C
  0%, x, x, 0%, 5%, 4%

(continued)
The line under a structure holds: Nrf2 ARE act, TCR act, Nrf2 inh, A549 viability, miR-21 reporter, ClpP mod
(16) O=c1[nH]c2ccccc2c2nc3ccccn3c12
  22%, -1%, -29%, -6%, -28%, u
(17) CC(NC(=O)COC(=O)/C=C/c1ccco1)c1ccccc1 (stereo unspecified)
  13µM*, 8%, 16%, -9%, 7%, x
(18) CC1CC(C)CN(C(=O)COC(=O)/C=C/c2ccco2)C1 (stereo unspecified)
  14µM*, 7%, 0%, 18%, x, -1%
(19) CNC(=O)COC(=O)/C=C/c1ccco1
  24%, -6%, -18%, 3%, 0%, -6%
(20) Cc1cccc(C)c1NC(=O)Cn1c(=O)n(Cc2ccccc2)c(=O)c2c(C)c(C(=O)N(C)C)sc21
  0%, x, x, -3%, -5%, -5%
(21) O=C(NCc1cccnc1)/C(=C\c1ccc(-c2cccc(Cl)c2)o1)S(=O)(=O)c1ccccc1
  u, -1%[46.1 µM], 21µM*, 21µM*, u, -11%
(22) COc1ccc(-c2cc(C(F)(F)F)nc(SCC(=O)Nc3ccc(O)cc3)n2)cc1OC
  0%, x, -3%, -14%, -73%, -18%
(23) COc1ccc(-c2cc(C(F)(F)F)nc(SCC(=O)NCc3cccs3)n2)cc1OC
  3%, -2%[46.1 µM], -4%, -8%, 3%, 25µM*
(24) COc1ccc(-c2cc(C(F)(F)F)nc(SCC(=O)NCc3ccc(OC)c(OC)c3)n2)cc1
  0%, x, u, -8%, -5%, -8%
(25) O=C(CSc1nc(-c2cccs2)cc(C(F)(F)F)n1)NCc1ccccc1
  0%, -2%, -21%, -1%, 8%, 35µM*
(26) O=C(O)CCS(=O)(=O)c1nc(-c2cccs2)cc(C(F)(F)F)n1
  u, x, x, 0%, -2%, 14µM*
(27) COc1ccc(-c2cc(C(F)(F)F)nc(SCC(=O)Nc3cc(C)on3)n2)cc1OC
  4%, 7%, -27%, -10%, -2%, 13µM*
(28) COc1cc2nc(CCc3nc4cc(OC)c(OC)cc4[nH]3)[nH]c2cc1OC
  x, x, x, x, x, -4%
(29) CC(C)CC1C(=O)N(Cc2cn(Cc3ccco3)nn2)CCS(=O)(=O)N1Cc1ccc(-c2ccc(F)cc2)cc1 (stereo unspecified)
  -4%, x, x, x, x, -3%
(30) CCC1CCCCN1C(=O)CSc1nc(-c2ccc(OC)cc2)cc(C(F)(F)F)n1 (stereo unspecified)
  0%, x, 21µM*, -6%, u, u

[31] COc1ccc(-c2cc(C(F)(F)F)nc(SCCC(=O)Nc3cc(C)on3)n2)cc1
[32] CCNC(=O)C1CCN(c2nnc(C)c3c(C)n(-c4ccc(OC)cc4)nc23)CC1
[33] COc1ccc(-c2cc(-c3ccccc3)c(C#N)c(SCC(=O)Nc3ncc(C)s3)n2)cc1
[34] COc1ccc(-c2cc(-c3ccccc3)nc(SCC(=O)Nc3nccs3)c2C#N)cc1
[35] CC1=NN(c2ccccc2)C(=O)/C1=C/C=C/c1ccccc1
[36] Cc1ccc(C2=NOC(=O)/C2=C\C=C\c2ccccc2)cc1
[37] CCC1=C(CC2NCCc3ccccc32)CC2c3cc(OC)c(OC)cc3CCN2C1 (stereo unspecified)
[38] COc1ccc(-c2cn(CCN)c(-c3ccncc3)n2)cc1
Compound | 31 | 32 | 33 | 34 | 35 | 36 | 37 | 38
Nrf2 ARE act | -1% | 0% | 0% | 3% | 11µM* | 9% | -1% | 0%
TCR act | 0% | x | -5% | 0%[46.1 µM] | 9%[46.1 µM] | 1% | -4% | 6%
Nrf2 inh | -11% | u | -26% | 10% | 3% | u | 3.7µM* | 1%
A549 viability | 2% | -1% | -1% | -1% | 6% | u | 7.3µM* | 7%
miR-21 reporter | -13% | -6% | -9% | -9% | -3% | -5% | x | x
ClpP mod | 35µM* | -17% | 7.9µM* | 28µM* | 0% | 32µM* | -30% | -1%

[39] O=S(=O)(NC1CCCC1)c1ccc(S(=O)(=O)N(Cc2cccs2)CC2CCCO2)cc1 (stereo unspecified)
[40] O=S(=O)(c1ccc(S(=O)(=O)N(Cc2cccs2)CC2CCCO2)cc1)N1CCCCC1 (stereo unspecified)
[41] CCN1CCN(CCCNC(=O)CN2C(=O)c3cccnc3Oc3ccc(Cl)cc32)CC1
[42] O=C1C=CC(=O)N1Cc1ccncc1
[43] O=C1C=CC(=O)N1CCCCCCCCCCN1C(=O)C=CC1=O
Compound | 39 | 40 | 41 | 42 | 43
Nrf2 ARE act | 0% | 0% | 0% | 0% | u
TCR act | 1% | 0% | 0% | -2% | -1%
Nrf2 inh | 18µM* | x | u | 14% | 26µM*
A549 viability | -13% | 4% | 1% | -1% | u
miR-21 reporter | 6% | 1% | -3% | x | x
ClpP mod | -2% | -1% | 0% | -5% | x
